System: normal mouse splenocytes
Type: cell-based
Settings: mouse splenocytes, 10, 50 and 100 µM, 20 h

[Ru(η^6-p-cymene)(η^6-CQDP)][BF4]2 [Complex 5]
toxicity to normal cells (in words): comparable to or lower than that of CQDP

Reference: publication PMC2910123 (Journal of inorganic biochemistry, 2010)
